The values below come from patent EP0615756B1 (priority 1993, dated 1994).

Where a name gives a salt, the structure may show the parent alone.

In the assay the test system is human. Briefly: Duration of analgesic effect after intramuscular injection in humans. It is filed as in vivo.

In the case of `Oc1ccc2c3c1O[C@H]1[C@@H](O)CC[C@@]4(O)[C@@H](C2)N(CC2CCC2)CC[C@]314` [nalbuphine hydrochloride, reference compound], the “50 % analgesic effect” value (human, 0.8 mmole/kg) was determined as 2.5 h. Also, where the note is “humans”, the 10% analgesic effect was determined as 5.0 h and the 20% analgesic effect is 4.4 h.
